# Measured affinities in a library of Ab-14 heavy chain variants

Target: peptide PDVDLGDISGINAS, taken from heptad repeat 2 (HR2) of SARS-CoV-2 spike.

The variants keep the light chain, the linker and the frameworks of Ab-14 (scFv order VH, the linker GGGGSGGGGSGGGGS, VL).
VH: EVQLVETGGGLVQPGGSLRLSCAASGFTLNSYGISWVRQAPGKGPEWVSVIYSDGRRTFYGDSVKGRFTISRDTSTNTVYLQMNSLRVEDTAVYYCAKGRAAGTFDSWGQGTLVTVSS
VL: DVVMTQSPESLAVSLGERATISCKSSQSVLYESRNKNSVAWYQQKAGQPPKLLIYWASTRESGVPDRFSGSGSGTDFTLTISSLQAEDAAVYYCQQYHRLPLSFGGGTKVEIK

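The parent was found by panning a naive human phage display library on the peptide. In library AAYL49, one, two or three CDR residues were substituted; doubles and triples were drawn at random. In AlphaSeq, yeast of one mating type display the scFv and yeast of the other type display the target. Binding brings cells together so that they mate, and sequencing counts the barcode pairs among the diploids. A regression on co-assayed BCL2-family reference pairs converts the normalised counts of each replicate to an apparent Kd. There are three technical replicates.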

Changes read parent residue, position, new residue, counted from the first residue of the VH shown.
Scale: log10 of Kd in nM, estimated from mating counts; low values are strong binders.
The mean shown is taken over the replicates in which the pair was detected.
"not detected" marks a missing value. The strain was present, yet no cells mated with the target were sequenced in any replicate, which points to weak or no binding.
Nonspecific signal, from three strains lacking the peptide, appeared in 15% of pairings of library AAYL49, centred on 4.06 (5% of these signals below 2.83); values are not corrected for it.

changes	log10 Kd (nM), mean	replicates with signal
L29F I34K V50Q	4.32	2 of 3
T28M G61C A101S	1.45	3 of 3
L29T R57N G61N	not detected	0 of 3
F27M N30P G33P	not detected	0 of 3
S63Q R100F T104D	3.92	1 of 3
L29S V50H S107N	not detected	0 of 3
G33H K65P G99C	not detected	0 of 3
I34F A101Q	not detected	0 of 3
G61T T104K	1.23	3 of 3
I34K T104R D106W	3.52	1 of 3
L29T G33M V50D	2.98	1 of 3
V64R G103W	4.01	1 of 3
L29F S31L S53Y	4.29	1 of 3
T28Q S31P Y32G	4.10	2 of 3
G33W G61H T104K	not detected	0 of 3
L29H R100P A101Q	not detected	0 of 3
G26N S35M A101W	not detected	0 of 3
Y60A G61P T104D	not detected	0 of 3
S63K K65A S107I	1.87	3 of 3
Y52T Y60V S63M	not detected	0 of 3
L29V Y52P D106C	not detected	0 of 3
I51E R57Y T104Q	3.46	1 of 3
T28G S63R A102E	3.76	1 of 3
F59H D62H S107I	not detected	0 of 3
Y32I D54I	not detected	0 of 3
G26W S53W	not detected	0 of 3
L29E R56Y K65I	not detected	0 of 3
F27A Y32M V50L	4.16	1 of 3
G33Q V50W G103D	4.64	3 of 3
Y32P D62N	not detected	0 of 3
F27T N30Q T104Q	1.67	3 of 3
I34Q R100C A101R	not detected	0 of 3
L29A F59S A101G	2.89	3 of 3
R100M A102G	1.54	3 of 3
G26K Y32D R100Q	not detected	0 of 3
T58Y G99T A101C	4.36	1 of 3
T28Q G103A T104P	2.04	3 of 3
L29D S31I Y32R	not detected	0 of 3
Y32E D54S F105C	3.64	1 of 3
F59W D62T R100Q	3.00	3 of 3
F59S K65C G99C	2.35	1 of 3
R56Q Y60S K65G	not detected	0 of 3
S31D G33T D54L	not detected	0 of 3
S35A G99T D106S	4.11	1 of 3
Y32V G99F G103E	4.02	2 of 3
F27R V50G R100M	5.55	3 of 3
N30R Y52W G99H	not detected	0 of 3
F27N N30F A101G	1.81	3 of 3
L29H G61P	not detected	0 of 3
K65M A102L T104Q	4.18	3 of 3
L29I N30V G33W	4.96	2 of 3
Y32S I34L T104F	4.64	1 of 3
F59D G61R D62H	not detected	0 of 3
I34S Y52W T58F	not detected	0 of 3
F27H F59M G103T	4.43	1 of 3
F59S A102C	5.02	3 of 3

From the list, the first 8 with no signal in any replicate:

{"changes": "L29T R57N G61N", "log10 Kd (nM), mean": "not detected", "replicates with signal": "0 of 3"}
{"changes": "F27M N30P G33P", "log10 Kd (nM), mean": "not detected", "replicates with signal": "0 of 3"}
{"changes": "L29S V50H S107N", "log10 Kd (nM), mean": "not detected", "replicates with signal": "0 of 3"}
{"changes": "G33H K65P G99C", "log10 Kd (nM), mean": "not detected", "replicates with signal": "0 of 3"}
{"changes": "I34F A101Q", "log10 Kd (nM), mean": "not detected", "replicates with signal": "0 of 3"}
{"changes": "G33W G61H T104K", "log10 Kd (nM), mean": "not detected", "replicates with signal": "0 of 3"}
{"changes": "L29H R100P A101Q", "log10 Kd (nM), mean": "not detected", "replicates with signal": "0 of 3"}
{"changes": "G26N S35M A101W", "log10 Kd (nM), mean": "not detected", "replicates with signal": "0 of 3"}

Reference: Engelhart et al. 2022, doi:10.1038/s41597-022-01779-4. File: FLAb, binding data.